Experimental data taken from patent US4528377A, “Substituted 3,4-diamino-1,2,5-thiadiazoles having histamine H2 -receptor antagonist activity” (Bristol-Myers Company, priority 1983, dated 1985).

Chains of the proteins cited; added tags and fusions are not shown.
UniProt P47747, whole entry: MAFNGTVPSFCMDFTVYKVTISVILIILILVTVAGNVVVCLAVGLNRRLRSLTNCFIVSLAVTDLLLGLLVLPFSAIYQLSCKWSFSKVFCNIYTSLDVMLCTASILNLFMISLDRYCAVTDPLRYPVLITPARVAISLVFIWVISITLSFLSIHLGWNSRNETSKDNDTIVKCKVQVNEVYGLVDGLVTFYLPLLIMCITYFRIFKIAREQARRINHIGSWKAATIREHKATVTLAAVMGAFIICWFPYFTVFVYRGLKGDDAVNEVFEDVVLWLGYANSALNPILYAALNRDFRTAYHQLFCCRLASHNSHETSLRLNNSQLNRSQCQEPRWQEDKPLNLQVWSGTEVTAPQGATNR

Molecular target: T1, histamine H2-receptors (Cavia porcellus, UniProt P47747)
T1 construct: The spontaneously beating right atrium was dissected free from other tissues; from tissue; host or cells: isolated right atrium of male Hartley strain guinea pigs
Assay: Histamine H2-receptor antagonism, isolated guinea pig right atria assay
Type: cell-based, Hartley strain guinea pigs
Conditions: Schild plot, 30-minute incubation, 95% confidence limits in parentheses, read-out: KB (dissociation constant)
From the text: Histamine produces concentration-related increases in the contractile rate of isolated, spontaneously beating guinea pig right atria. […] Subsequent investigations by Hughes and Coret, Proc. Soc. Exp. Biol. Med., 148, 127 (1975) and Verma and McNeill, J. Pharmacol. Exp. Ther., 200, 352 (1977) support the conclusion of Black and coworkers that the positive chronotropic effect of histamine in isolated guinea pig right atria is mediated via histamine H2 -receptors. Black et al., Agents and Actions, 3, 133 (1973) and Brimblecombe et al., Fed. Proc., 35, 1931 (1976) have utilized isolated guinea pig right atria as a means for comparing the activities of histamine H2 -receptor antagonists. The present comparative studies were carried out using a modification of the procedure reported by Reinhardt et al., Agents and Actions, 4, 217 (1974).
Male Hartley strain guinea pigs (350-450 gm) were sacrificed by a blow on the head. The heart was excised and placed in a Petri dish of oxygenated (95% O2, 5% CO2) modified Krebs solution (g/liter: NaCl 6.6, KCl 0.35, MgSO4.7H2 O 0.295, KH2 PO4 0.162, CaCl2 0.238, NaHCO3 2.1 and dextrose 2.09). […] Atrial contractions were recorded isometrically by means of a Grass FT 0.03 force displacement transducer and recordings of contractile force and rate were made with a Beckman RP Dynograph. […]

SMILES: CN/C(=N/CCSCc1nc[nH]c1C)NC#N [cimetidine, reference compound]
- Kb: 410 nM
